According to US5278045A, “Method and compositions to screen compounds for enhancement of the cholinergic, dopaminergic and serotonergic function” (Du Pont Merck Pharmaceutical Company, priority 1990, dated 1994):

Tests used:
ACh release = assay: Neurotransmitter release assay: stimulated ACh release from brain slices; parameters: species or system rat; conditions: concentration to enhance stimulated release of ACh by 100% (2-fold) over control, from dose response curves
Procedure: Male Wistar rats weighing 175-200 g were euthanatized and the brains were dissected out immediately. Slices (0.3 mm thick) from the parietal cortex were prepared manually by using a recessed Lucite® guide. Slices (1.5 mm thick) from the hippocampus and the caudate nucleus were prepared by using a slotted brain holder. All slices were subsequently cut into 0.25×0.25 mm squares with a McIlwain tissue chopper.
Labeling of transmitter stores in slices was prepared by the following methods. For ACh release, slices (approximately 100 mg wet weight) were incubated in 10 ml Krebs-Ringer (KR) medium containing (mM): NaCl(116), KCl(3), CaCl2 (1.3), MgCl2 (1.2), KH2 PO4 (1.2), Na2 SO4 (1.2), NaHCO3 (25) and glucose(11), to which 10 μCi ^3 H-choline (specific activity approx. 80 Ci/mmol: NEN) and 10 nmol unlabeled choline had been added to give a final concentration of 10^-6 M. Incubation was carried out for 30 min at 37° C. under a steady flow of 95% O2 /5% CO2. Under these conditions, part of the radioactive choline taken up is converted into radioactive ACh by cholinergic nerve endings, stored in synaptic vesicles, and released upon depolarization by high-K^+ -containing medium [Molenaar et al., 1973a]. […]
After 15 min washout of non-specifically bound radioactivity during superfusion, the collection of fractions of 4 min (1.2 ml) each was started. […]

DuP 996 binding protein = assay: Specificity of the DuP 996 binding protein (displacement of tritiated DuP 996 by pharmacological standards); parameters: species or system rat; conditions: receptor and ion channel ligands and neuropeptides against 10 nM tritiated DuP 996

O=C1N(c2ccccc2)c2ccccc2C1(Cc1ccncc1)Cc1ccncc1 [Compound 7, 3,3-Bis(4-pyridinylmethyl)-1-phenylindolin-2-one]
ACh Release EC100 (ACh release): 1,500 nM

thyrotropin
ability to displace tritiated DuP 996 binding from the binding protein (DuP 996 binding protein): None of these pharmacological standards was able to displace
